Source: ChEMBL document CHEMBL3272031, “Inhibition of dihydrofolate reductase. Structure-activity correlations of quinazolines” (J Med Chem, 1976)

The compounds below were run against Dihydrofolate reductase (Rattus norvegicus) (UniProt Q920D2).

| log(1/C) | SMILES |
| --- | --- |
| 7.89 | Nc1nc(N)c2c(Cl)c(NC(=O)Cc3ccc(Br)cc3)ccc2n1 |
| 5.82 | Nc1nc(N)c2cc(CNC(=O)Cc3ccc(Cl)c(Cl)c3)ccc2n1 |
| 4.66 | Nc1nc(N)c2ccccc2n1 |
| 4.92 | N#Cc1ccc2nc(N)nc(N)c2c1 |
| 8 | Nc1nc(N)c2c(CSc3ccc4ccccc4c3)cccc2n1 |
| 7.48 | Cc1c(NC(=O)Cc2ccc(Cl)cc2)ccc2nc(N)nc(N)c12 |
| 6.7 | Nc1nc(N)c2c(Cl)c(Cl)ccc2n1 |
